Earlier results on one compound are cited in patent US20240115576A1, “Caffeine Compositions” (priority 2020, published 2024).

This data set has as its system opioid receptor. As to conditions: in vivo.

Each structure is given as a SMILES string.

As for `C=CCN1CC[C@]23c4c5ccc(O)c4O[C@H]2C(=O)CC[C@@]3(O)[C@H]1C5` [naloxone, Naloxone], the duration of action is 30 to 60 min.
